Earlier results on one substance are cited in PMC8893328.

Amino acid sequences for entries named in this document (tags omitted). Residues count along the entry.
UniProt P01589, 22-240, chain 1 of 3: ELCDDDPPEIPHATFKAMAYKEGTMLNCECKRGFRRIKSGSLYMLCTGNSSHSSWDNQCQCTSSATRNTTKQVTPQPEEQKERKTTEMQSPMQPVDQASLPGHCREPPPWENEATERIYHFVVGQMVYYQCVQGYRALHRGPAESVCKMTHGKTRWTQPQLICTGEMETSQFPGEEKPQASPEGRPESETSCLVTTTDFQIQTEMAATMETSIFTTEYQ
UniProt P60568, 21-153: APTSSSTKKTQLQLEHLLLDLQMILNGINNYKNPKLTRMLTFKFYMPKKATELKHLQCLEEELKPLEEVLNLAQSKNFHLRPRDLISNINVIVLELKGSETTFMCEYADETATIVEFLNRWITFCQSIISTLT

The data set has as its target IL2R heterotrimeric receptor (Homo sapiens) (UniProt P01589).

For the substance IL2 (from UniProt P60568), the Kd is 0.01 nM.
